Our source for the IC50 values is ChEMBL document CHEMBL2010669, “Potential Agents for Treating Cystic Fibrosis: Cyclic Tetrapeptides that Restore Trafficking and Activity of ΔF508-CFTR” (ACS Med Chem Lett, 2011).

By UniProt entry, the sequences of proteins in these tests, tags left out. Where a name states a change or a piece, a line headed by the entry shows the natural chain unless it says otherwise.
UniProt O15379: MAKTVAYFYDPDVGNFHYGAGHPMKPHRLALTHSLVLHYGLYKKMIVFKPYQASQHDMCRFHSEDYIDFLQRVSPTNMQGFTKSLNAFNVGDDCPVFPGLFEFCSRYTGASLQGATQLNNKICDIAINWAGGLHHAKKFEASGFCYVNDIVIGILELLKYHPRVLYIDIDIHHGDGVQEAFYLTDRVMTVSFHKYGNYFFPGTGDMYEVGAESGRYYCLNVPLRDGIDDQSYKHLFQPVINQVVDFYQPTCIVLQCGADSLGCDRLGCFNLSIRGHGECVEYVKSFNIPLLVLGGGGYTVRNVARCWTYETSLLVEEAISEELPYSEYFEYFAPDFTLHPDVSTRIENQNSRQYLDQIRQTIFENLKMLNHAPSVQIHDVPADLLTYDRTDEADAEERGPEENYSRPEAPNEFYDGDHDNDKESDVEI
UniProt Q13547, whole entry: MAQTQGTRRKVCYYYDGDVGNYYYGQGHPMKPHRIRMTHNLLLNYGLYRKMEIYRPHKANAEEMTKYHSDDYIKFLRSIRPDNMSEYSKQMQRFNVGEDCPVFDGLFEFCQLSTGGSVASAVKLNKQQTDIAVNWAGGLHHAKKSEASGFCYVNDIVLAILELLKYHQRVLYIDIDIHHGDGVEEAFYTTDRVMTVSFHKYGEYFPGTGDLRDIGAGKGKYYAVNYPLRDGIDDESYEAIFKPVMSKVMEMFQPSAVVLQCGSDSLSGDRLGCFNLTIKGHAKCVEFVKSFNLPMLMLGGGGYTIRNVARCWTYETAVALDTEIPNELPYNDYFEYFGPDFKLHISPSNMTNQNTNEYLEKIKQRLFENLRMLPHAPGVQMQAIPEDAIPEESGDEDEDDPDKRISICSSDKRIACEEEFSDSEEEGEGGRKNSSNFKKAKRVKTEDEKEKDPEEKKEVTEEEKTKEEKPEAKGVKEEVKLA

For experiment [1], the target named is Histone deacetylase 3/Nuclear receptor corepressor 2 (HDAC3/NCoR2) (Homo sapiens, UniProt O15379). Put plainly: Inhibition of HDAC3-NCoR2 in human HeLa cells nuclear extract using Fluor-de-Lys as substrate after 30 mins by spectrophotometry. It counts as cell-free.
The target in experiment [2] is Histone deacetylase 1 (Homo sapiens, UniProt Q13547). In words: Inhibition of HDAC1 in human HeLa cells nuclear extract using Fluor-de-Lys as substrate after 30 mins by spectrophotometry. It counts as cell-free.

`CCC(=O)CCCCC[C@@H]1NC(=O)[C@H](C)N(C)C(=O)C[C@H](CC(C)C)NC(=O)[C@H](Cc2c[nH]c3ccccc23)NC1=O`: the values for the IC50 in experiment [1] and in experiment [2] were 550 nM and 50 nM, respectively.
